## scFv variants of Ab-91 (heavy chain) against a SARS-CoV-2 spike peptide

Target peptide (SARS-CoV-2 spike, HR2 region): PDVDLGDISGINAS

Parent scFv Ab-91: VL joined to VH by the linker GGGGSGGGGSGGGGS. Changes lie in the heavy chain CDRs alone.
VL: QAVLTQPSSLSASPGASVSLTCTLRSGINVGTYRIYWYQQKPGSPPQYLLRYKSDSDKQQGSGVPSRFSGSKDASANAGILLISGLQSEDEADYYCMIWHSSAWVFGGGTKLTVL
VH: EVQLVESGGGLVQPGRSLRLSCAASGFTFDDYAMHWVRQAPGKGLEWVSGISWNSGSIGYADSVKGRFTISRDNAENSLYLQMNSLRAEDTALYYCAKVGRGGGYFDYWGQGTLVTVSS

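The parent was found by panning a naive human phage display library on the peptide. In library AAYL51, one, two or three CDR residues were substituted; doubles and triples were drawn at random. The scFvs were displayed on barcoded MATa yeast, the peptide on MATalpha yeast. After mating in shaken culture at 30 °C for 16 h, diploids were selected and their barcode pairs sequenced. Each replicate has its own calibration line, from reference interactions of the BCL2 family. The assay was run in three technical replicates.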

Substitutions are numbered in sequence along the VH above, starting at 1 (not Kabat).
Numbers give log10(Kd / nM), so 0 is 1 nM and 3 is 1 µM. Smaller is tighter.
A mean of the replicates is given; it leaves out those without a signal.
"no signal" means that the variant was in the library but no mating with the target was seen in any replicate; the authors take this as a sign of poor binding, and no number exists.
Order: sorted from the lowest average up, undetected variants last.

"log10 Kd (nM), mean",detected,empty controls,changes
1.39,3/3,3/9,G26D+H35V
1.96,1/3,1/9,T28Y+W53I+R101H
2.00,3/3,3/9,D31M+S57H
2.19,3/3,1/9,I58D+A61R
2.83,1/3,1/9,W53K+D62S+K65V
3.23,2/3,1/9,A33R+A61P
3.56,1/3,1/9,S63P+G102Q+F106L
3.89,1/3,0/9,W53A+V99W+G102V
4.12,1/3,1/9,G50K+G56I+S57I
4.15,1/3,3/9,D30I+A33S+H35M
4.18,2/3,2/9,T28V+D30G
4.19,1/3,3/9,G50R+N54E+R101D
4.30,2/3,2/9,D31N+I51H
4.44,2/3,3/9,G50L+S57P+G100E
4.44,1/3,1/9,Y32H+H35K+R101C
4.47,2/3,2/9,D31P+V64L+G102H
4.48,2/3,0/9,D31F+Y60H+Y108F
4.56,1/3,1/9,S57N+R101G+G104A
4.60,2/3,2/9,A61Y+V64D+R101K
4.62,2/3,2/9,A33S+S55C+F106Q
4.64,2/3,5/9,F29N+G104V+Y108N
4.73,2/3,1/9,G56Y+S57P+G102M
4.73,2/3,4/9,G50E+Y60E+V64E
4.85,3/3,3/9,G50W+S55P+Y108C
4.88,3/3,5/9,M34Q+S57A+R101A
4.90,1/3,1/9,S55T+I58F+G104V
5.01,3/3,2/9,I51L+G56F
5.20,1/3,4/9,F27Y+I51A+S57Y
5.32,3/3,5/9,G26P+A33L+H35N
5.33,2/3,3/9,G50R+I51P
5.34,2/3,4/9,D62E+F106N+D107M
5.63,1/3,3/9,D30P+N54R+V64D
5.77,2/3,4/9,D30C+H35Q+S63T
5.79,1/3,2/9,A33D+G50P
5.87,1/3,2/9,W53S+N54P+G56W
5.94,2/3,5/9,F27R+K65H+G103I
no signal,0/3,1/9,I51L+G56E+G100S
no signal,0/3,0/9,D31A+G50W+G102A
no signal,0/3,0/9,F29D+D30V+G103W
no signal,0/3,1/9,D31G+H35A+N54L
no signal,0/3,0/9,N54D+Y60Q+F106L
no signal,0/3,0/9,R101Y+G104T+F106T
no signal,0/3,1/9,F27W+V64Y+F106Y
no signal,0/3,0/9,S55F+Y105I+D107H
no signal,0/3,0/9,R101Q+Y108P
no signal,0/3,2/9,I51E+V64H+D107H
no signal,0/3,0/9,I58Y+Y60P+A61C
no signal,0/3,0/9,S63C+G104W+D107W
no signal,0/3,0/9,F29Y+G56T+G103P
no signal,0/3,0/9,G26M+Y32M+G59N
no signal,0/3,0/9,T28S+M34I+S52N
no signal,0/3,4/9,M34R+K65S+G104V
no signal,0/3,1/9,G26T+T28R+F29I
no signal,0/3,1/9,F27T+G102E
no signal,0/3,1/9,D30F+N54R+D62Y
no signal,0/3,0/9,F27I+T28H+F29P
no signal,0/3,0/9,G26D+G59A+K65D
no signal,0/3,0/9,F29M+M34R+A61S
no signal,0/3,0/9,F27N+M34P+I51N
no signal,0/3,0/9,G26I+Y60T+D107M
no signal,0/3,0/9,F106Y+D107R
no signal,0/3,0/9,F29G+D31M+G50W
no signal,0/3,0/9,G26N+D31W+A33P
no signal,0/3,2/9,F29H+D30E+S52V
no signal,0/3,1/9,T28F+H35V+G102N
no signal,0/3,0/9,A33Y+V64W+D107F

For reference, 6 entries of the list once more:

changes,"log10 Kd (nM), mean",detected,empty controls
I51L+G56F,5.01,3/3,2/9
D31M+S57H,2.00,3/3,3/9
G26N+D31W+A33P,no signal,0/3,0/9
S55T+I58F+G104V,4.90,1/3,1/9
R101Y+G104T+F106T,no signal,0/3,0/9
A33Y+V64W+D107F,no signal,0/3,0/9

Nonspecific signal, from three strains lacking the peptide, appeared in 21% of pairings of library AAYL51, centred on 4.54 (5% of these signals below 3.26); values are not corrected for it. Also given: how often the same scFv was detected with the empty control strains.
In this assay the parent's reference entry averaged 1.86; its copy inside this library read 0.88.

Data: MIT Lincoln Laboratory AlphaSeq set, Engelhart et al. 2022, doi:10.1038/s41597-022-01779-4, as distributed in FLAb.